# Reference: patent publication US20230190934A1, “METHODS AND COMPOSITIONS FOR TREATING A TUMOR” (Rakuten Medical, Inc., priority 2020, published 2023)
# Assays:
# [1] = tested on: FaDu squamous cell carcinoma cells; assay: HMGB1 release into culture supernatant after PIT, ELISA; type: cell-based, human; conditions: illuminated at 32 J/cm^2, compared to no light control
# Procedure: (§1) EGFR-expressing A-431 (ATCC® CRL-1555™) epidermoid carcinoma and FaDu (ATCC® HTB-43™) squamous cell carcinoma cells were incubated with anti-EGFR-IRDye 700DX. The tumor cells were illuminated at 32 J/cm^2 for PIT-mediated killing of target cells, and the culture supernatants were assessed for secretion of HMGB1 using an enzyme-linked immunosorbent assay (ELISA). Cells not treated with light served as controls.
# [2] = tested on: EGFR-expressing A-431 epidermoid carcinoma cells; assay: as above; type: cell-based; conditions: illuminated at 32 J/cm^2, compared to no light control
# Procedure: as §1
# [3] = tested on: A-431 epidermoid carcinoma cells; assay: IFN-α2 and IFN-β release after PIT, MesoScaleDiscovery assay; type: cell-based; conditions: 1 hour after PIT treatment, compared to untreated cells
# Procedure: (§2) In some aspects, release of interferon-α proteins (IFNα) and/or interferon-β (IFNβ) from cancer cells is consistent with immunogenic cell death (ICD), and can enhance innate and adaptive cell functionality. A-431, BxPC3, and FaDu cells were incubated with anti-EGFR-IR700 and subjected to illumination, to effect PIT treatment, as described above. Untreated cells served as a control. 1 hour after treatment, IFN-α2 and IFN-β were measured in the medium of treated and untreated cells using a MesoScaleDiscovery IFN-α2 and IFN-β assay.
# BxPC3 cells = assay: as above; type: cell-based; conditions: 1 hour after PIT treatment, compared to untreated cells
# Procedure: as §2
# [4] = tested on: EGFR-expressing A-431 epidermoid carcinoma cells; assay: Cell surface expression of HSP70, HSP90 and calreticulin after PIT, flow cytometry; type: cell-based; conditions: 6 J/cm^2, 690 nm laser, compared to no light control
# Procedure: (§3) Cell surface expression of HSP70, HSP90, and calreticulin (CRT) was evaluated after incubation with an exemplary antibody-IR700 conjugate and light treatment (PIT) as additional indicators of ICD.
# (§4) EGFR-expressing A-431 (ATCC® CRL-1555™) epidermoid carcinoma and FaDu (ATCC® HTB-43™) squamous cell carcinoma cells were incubated with anti-EGFR-IRDye 700DX. A-431 cells were illuminated at 6 J/cm^2 and FaDu cells were illuminated at 12 J/cm^2, with a 690 nm laser. Cell surface expression of HSP70, HSP90, and calreticulin (CRT), were measured by flow cytometry after staining with antibodies specific for each protein. Cells not treated with light served as controls.
# FaDu cells = assay: IFN-α2 and IFN-β release after PIT, MesoScaleDiscovery assay; type: cell-based, human; conditions: 1 hour after PIT treatment, compared to untreated cells
# Procedure: as §2
# [5] = tested on: FaDu squamous cell carcinoma cells; assay: Cell surface expression of HSP70, HSP90 and calreticulin after PIT, flow cytometry; type: cell-based, human; conditions: 12 J/cm^2, 690 nm laser, compared to no light control
# Procedure: as §3, §4
substance,measurement,setting,value
"CTX-IR700: exemplary antibody-IR700 conjugate, anti-EGFR (cetuximab)-IRDye 700DX",HMGB1 release into the supernatant,[1],large increase
same,HMGB1 release into the supernatant,[2],large increase
same,IFN-α2 release into the medium,[3],significantly more
same,IFN-β release into the medium,[3],significantly more
same,IFN-α2 release into the medium,BxPC3 cells,A similar increase was not observed
same,IFN-β release into the medium,BxPC3 cells,A similar increase was not observed
same,Cell surface expression of HSP70,[4],increased expression
same,Cell surface expression of HSP90,[4],increased expression
same,Cell surface expression of calreticulin (CRT),[4],increased expression
same,IFN-α2 release into the medium,FaDu cells,A similar increase was not observed
same,IFN-β release into the medium,FaDu cells,A similar increase was not observed
same,Cell surface expression of HSP70,[5],increased expression
same,Cell surface expression of HSP90,[5],increased expression
same,Cell surface expression of calreticulin (CRT),[5],increased expression
